One compound from patent US9248103B2, “Method for improving water solubility of slightly soluble substance” (Kabushiki Kaisha Sangi, priority 2012, dated 2016) can be followed below.

SMILES strings stand for the structures.

The nature of data set [1]: Dissolution test of poorly-soluble substances, 2nd fluid for disintegration test (pH 6.8) of the Japanese Pharmacopoeia. The data set is classed as physicochemical.
The nature of data set [2]: Dissolution test of poorly-soluble substances, distilled water. The data set is classed as physicochemical.
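Further: Comparative example rows not the inventive coated formulation.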

In the case of `NC(N)=Nc1nc(CSCCC(N)=NS(N)(=O)=O)cs1`, the “Dissolved amount, elution time 1 min” value in data set [1] came out at 1980.2 µg/mL. For the same compound, the “Dissolved amount, elution time 30 min” value in data set [2] (30 min) was determined as 1566.8 µg/mL. In data set [2] (60 min), the “Dissolved amount, elution time 60 min” value came to 1565.8 µg/mL.
